Results on one compound are retold here after ChEMBL document CHEMBL6074665, “Discovery of Anthranilic Acid Derivatives as Antagonists of the Pro-Inflammatory Orphan G Protein-Coupled Receptor GPR17” (J Med Chem, 2024).

Chains of the proteins cited; added tags and fusions are not shown.
UniProt Q13304, whole entry: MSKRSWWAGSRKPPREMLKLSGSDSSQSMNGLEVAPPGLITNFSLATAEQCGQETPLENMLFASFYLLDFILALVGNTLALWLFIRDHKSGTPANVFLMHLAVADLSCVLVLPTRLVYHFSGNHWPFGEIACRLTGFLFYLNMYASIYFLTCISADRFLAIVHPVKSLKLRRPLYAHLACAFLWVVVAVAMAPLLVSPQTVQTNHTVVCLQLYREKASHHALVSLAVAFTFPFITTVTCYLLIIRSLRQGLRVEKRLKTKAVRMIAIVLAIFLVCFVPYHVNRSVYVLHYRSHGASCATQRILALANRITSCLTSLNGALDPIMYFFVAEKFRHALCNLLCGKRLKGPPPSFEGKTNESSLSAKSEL

The target of the assay is Uracil nucleotide/cysteinyl leukotriene receptor (Homo sapiens, UniProt Q13304). Briefly: Antagonist activity at recombinant GPR17 (unknown origin) assessed as inhibition of calcium mobilization at 5 uM by fluorescence-based calcium mobilization assay relative to control. It counts as functional. The following applies: filed as antagonist. (Calcium flux is commonly read through the fluorescence of an indicator in the cells.)

Broadly, the inhibition is the percentage by which the read-out fell short of the control. Take `CCc1ccc(-n2nnnc2/C=C/Nc2ccccc2C(=O)O)cc1`: the inhibition amounted to 65%.
